From ChEMBL document CHEMBL1157779, “Merging the structural motifs of functionalized amino acids and alpha-aminoamides: compounds with significant anticonvulsant activities” (J Med Chem, 2010)

Key:
Rattus norvegicus [1] = test: Anticonvulsant activity in po dosed Sprague-Dawley albino rat assessed as inhibition of maximal electroshock-induced seizures after 0.5 hrs; type: functional
Procedure, shortened: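 Male albino Sprague-Dawley rats dosed orally; maximal electroshock seizures, protection scored as blockade of hind limb extension, tested at set times after dosing; ED50 in mg/kg from quantitative evaluation for active compounds.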

Rattus norvegicus [2] = test: Behavioral toxicity in po dosed Sprague-Dawley albino rat; type: organism-based; settings: in vivo
Procedure, shortened: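 Oral dosing in male albino Sprague-Dawley rats with behavioral toxicity observation at set times after dosing, doses up to 500 mg/kg.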

Rattus norvegicus [3] = species on record: Rattus norvegicus; test: Protective index, ratio of TD50 for Sprague-Dawley albino rat to anticonvulsant ED50 for Sprague-Dawley albino rat; type: functional
Procedure, shortened: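 Rat, oral: behavioral-toxicity TD50 divided by MES ED50, both in mg/kg.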

Compound | ED50 (Rattus norvegicus [1]) | TD50 (Rattus norvegicus [2]) | Ratio TD50/ED50 (Rattus norvegicus [3])
COC[C@@H](NC(C)=O)C(=O)NCc1ccc(OCc2ccccc2F)cc1 | 11 mg/kg |  | 
COC[C@@H](NC(C)=O)C(=O)NCc1ccc(OCc2ccc(F)cc2)cc1 | 5.8 mg/kg | > 500 mg/kg | >86
